{"source": "paper PMC6844273", "about": "“Platinum(IV) dihydroxido diazido N-(heterocyclic)imine complexes are potently photocytotoxic when irradiated with visible light” (Chemical Science, 2019)", "key": {"[1]": {"experiment": "Photodecomposition in H2O (loss of N3→Pt LMCT band) by UV-vis spectroscopy", "format": "physicochemical", "conditions": "for Time to achieve conversion comparable to 463 nm irradiation (loss of N3→Pt band): green light 517 nm, 30 mW cm^–2", "description": "Solutions of the Pt^IV diazido complexes (60 μM, H2O) were irradiated with blue light (463 nm, 57 mW cm^–2). The decrease in intensity of the λmax N3 → Pt band was monitored over time for each complex by UV-vis spectroscopy until ca. 22% of the original intensity remained (Fig. S2 ^†). The data were fitted to y = y0 + Ae^Rox, with r^2 > 0.98 (Fig. 7).\nFigure S2: Changes in UV-Vis spectra of the PtIV diazido complexes (60 μM in H2O) upon irradiation\nTable S11. Decomposition half-lives of complexes (60 μM) when irradiated with blue (463 nm) light,\nas measured by UV-Vis spectroscopy.\n(1 picture or pasted object on this page, not shown here)"}, "[2]": {"test_system": "human ovarian (A2780) cancer cell line", "experiment": "Phototoxicity / dark cytotoxicity, neutral red uptake assay, A2780", "description": "(§1) The novel trans-di-(N-heterocyclic)imine dihydroxido diazido Pt^IV complexes Pt^IV complexes were evaluated against human ovarian (A2780), cisplatin-resistant ovarian (A2780cis) and oesophageal (OE19) cancer cell lines, and the previously reported compounds (FM165 and 3) were also evaluated for comparison. […]\n(§2) controller and 3 UVA lamps (Hitachi, λmax = 361 nm) or 6 Luzchem LZC-420 lamps (λmax = 420 nm) with no other sources of light filtration, or LED light sources (BASETech model no. SP-GU10 230V~50 Hz […]\n(§3) Maintenance. Human ovarian carcinoma (A2780), cisplatin-resistant ovarian carcinoma (A2780CIS) and oesophageal adenocarcinoma (OE19) cells were maintained in RPMI medium containing 10% Foetal Calf Serum (FCS). Cell lines were obtained from the European Collection of Animal Cell Cultures (ECACC). Cells were maintained in antibiotic-free medium in a humidified atmosphere of 95% air: 5% CO2 and subcultured every 7-10 days. Mycoplasma checks were done using the Hoechst staining method. Cells were seeded into dishes the night before experiments at a density of 6 - 7×10^4 cells.cm-2.\n(§4) Experiments were carried out in an adapted laboratory with ambient light levels kept below 1 lux […]\nIrradiation. Cells were irradiated by a bank of TL03 light sources (λmax 420 nm), filtered to attenuate wavelengths below 400 nm. […]\n(§5) Phototoxic Index and Wavelength-Dependence. The phototoxic Index (PI) was determined 24 h after irradiation using the neutral red uptake assay;14 following cell uptake the neutral red dye accumulates in lysosomes, the low pH in the lysosomal matrix of live cells causes the dye to becomes charged, allowing it to be retained in this organelle.15 The dye was then extracted from the cells upon solubilisation and quantified. […] The dye concentration was quantified by measuring the absorbance at 450 nm. […] Goodness of fit was determined from the R2 values of the curves and 95% confidence intervals. […]"}, "[3]": {"test_system": "cisplatin-resistant ovarian (A2780cis) cancer cell line", "experiment": "Phototoxicity / dark cytotoxicity, neutral red uptake assay, A2780cis", "description": "as §1\nas §3, with “Cells were seeded into dishes the night before experiments at a density of 6 - 7×10^4 cells.cm-2.” left out\nas §5"}, "[4]": {"format": "physicochemical", "conditions": "water, 20 °C"}, "[5]": {"test_system": "A2780, A2780cis and OE19 cancer cell lines", "conditions": "absence of irradiation, cell lines investigated", "description": "as §1, §3, §4\nIrradiation. Cells were irradiated by a bank of TL03 light sources (λmax 420 nm), filtered to attenuate wavelengths below 400 nm. Irradiances, dosimetry and calibrations were traceable to the National […]\nCells were irradiated in stirred suspension. Sham irradiated cells were treated identically to the test cells but were covered during irradiation.\nTreatment. Test compounds were prepared in Earle’s Balanced Salt Solution (EBSS) and filtered immediately before use. Photofrin was used as the positive control for visible light irradiation. The positive and negative controls were included on each plate in parallel with the complexes. Cell viability […]\nCells were treated for 1 h at 37 °C/5% CO2 with EBSS containing the test compound, and then irradiated with 5 J.cm-2 visible radiation.\nas §5, with “quantified. Protocol: a stock solution of neutral red was prepared in water (4 mg. mL-1) and diluted 80-fold in the cell culture medium (RPMI). Prior to addition to the cells, the solution was heated to 37 °C and filtered (no. 1 Whatman paper). The growth medium was removed from the cells, the neutral red dye (100 μL) was added and the cells are incubated for 3 hours in the dark.” for “quantified.”"}, "[6]": {"test_system": "oesophageal (OE19) cancer cell line", "experiment": "Phototoxicity / dark cytotoxicity, neutral red uptake assay, OE19", "conditions": "ratio of cytotoxicity following irradiation (420 nm) vs. in the dark", "description": "as §1, §2\nMaintenance. Human ovarian carcinoma (A2780), cisplatin-resistant ovarian carcinoma (A2780CIS) and oesophageal adenocarcinoma (OE19) cells were maintained in RPMI medium containing 10% Foetal Calf Serum (FCS). Cell lines were obtained from the European Collection of Animal Cell Cultures (ECACC). […]\nas §5"}, "[7]": {"conditions": "60 μM in H2O, blue light 463 nm, 57 mW cm^–2, UV-vis"}}, "note": "“Also recorded” adds a separate entry of the source."}
{"substance": "trans,trans,trans-[Pt(N3)2(OH)2(1-methylimidazole)2] [Complex 32]", "values": [{"measurement": "Decomposition half-life t1/2", "setting": "[1]; buffer", "result": 22, "unit": "min"}]}
{"substance": "trans,trans,trans-[Pt(N3)2(OH)2(2-picoline)(pyridine)] [Complex 18]", "values": [{"measurement": "Dark toxicity", "setting": "[2]; A2780, absence of irradiation", "result": "moderate dark toxicity; also recorded: cytotoxic in the absence of irradiation"}, {"measurement": "Dark toxicity", "setting": "[3]; absence of irradiation", "result": "moderate dark toxicity; also recorded: cytotoxic in the absence of irradiation"}, {"measurement": "Maximum aqueous solubility", "setting": "[4]", "result": 20, "unit": "mM"}, {"measurement": "Decomposition half-life t1/2", "setting": "[1]; [7]", "result": 9, "unit": "min"}, {"measurement": "Time to achieve conversion comparable to 463 nm irradiation (loss of N3→Pt band)", "setting": "[1]", "result": "> 6", "unit": "h"}]}
{"substance": "trans,trans,trans-[Pt(N3)2(OH)2(3-picoline)2] [Complex 23]", "values": [{"measurement": "Dark toxicity", "setting": "[5]", "result": "minimal toxicity in the dark; also recorded: non-toxic in the absence of irradiation"}]}
{"substance": "trans,trans,trans-[Pt(N3)2(OH)2(3-picoline)(pyridine)] [Complex 19]", "values": [{"measurement": "Maximum aqueous solubility", "setting": "[4]", "result": 20, "unit": "mM"}, {"measurement": "Decomposition half-life t1/2", "setting": "[1]; [7]", "result": 21, "unit": "min"}, {"measurement": "Time to achieve conversion comparable to 463 nm irradiation (loss of N3→Pt band)", "setting": "[1]", "result": "> 6", "unit": "h"}, {"measurement": "Dark toxicity", "setting": "[5]", "result": "minimally toxic in the absence of irradiation; also recorded: minimal toxicity in the dark; also recorded: non-toxic in the absence of irradiation"}]}
{"substance": "trans,trans,trans-[Pt(N3)2(OH)2(4-picoline)2] [Complex 26]", "values": [{"measurement": "Phototoxic potency, fold more potent than 3", "setting": "[2]; A2780, 420 nm", "result": 3, "unit": "fold"}, {"measurement": "PI (phototoxic index)", "setting": "[2]; A2780, ratio of cytotoxicity following irradiation (420 nm) vs. in the dark", "result": ">95"}, {"measurement": "PI (phototoxic index)", "setting": "[3]; ratio of cytotoxicity following irradiation (420 nm) vs. in the dark", "result": ">48.8"}, {"measurement": "PI (phototoxic index)", "setting": "[6]", "result": ">24"}, {"measurement": "Maximum aqueous solubility", "setting": "[4]", "result": 4, "unit": "mM"}, {"measurement": "Dark toxicity", "setting": "[5]", "result": "minimally toxic in the absence of irradiation; also recorded: minimal toxicity in the dark; also recorded: non-toxic in the absence of irradiation"}]}
{"substance": "trans,trans,trans-[Pt(N3)2(OH)2(4-picoline)(pyridine)] [Complex 20]", "values": [{"measurement": "Maximum aqueous solubility", "setting": "[4]", "result": 20, "unit": "mM"}, {"measurement": "Decomposition half-life t1/2", "setting": "[1]; [7]", "result": 20, "unit": "min"}, {"measurement": "Time to achieve conversion comparable to 463 nm irradiation (loss of N3→Pt band)", "setting": "[1]", "result": "> 6", "unit": "h"}, {"measurement": "Dark toxicity", "setting": "[5]", "result": "minimal toxicity in the dark; also recorded: non-toxic in the absence of irradiation"}]}
